Results from patent US4511504A, “Carboxyalkyl peptide derivatives” (G.D. Searle & Co., priority 1983, dated 1985).

Amino acid sequences for entries named in this document (tags omitted). Residues count along the entry.
UniProt P03956, 100-469 limits assumed: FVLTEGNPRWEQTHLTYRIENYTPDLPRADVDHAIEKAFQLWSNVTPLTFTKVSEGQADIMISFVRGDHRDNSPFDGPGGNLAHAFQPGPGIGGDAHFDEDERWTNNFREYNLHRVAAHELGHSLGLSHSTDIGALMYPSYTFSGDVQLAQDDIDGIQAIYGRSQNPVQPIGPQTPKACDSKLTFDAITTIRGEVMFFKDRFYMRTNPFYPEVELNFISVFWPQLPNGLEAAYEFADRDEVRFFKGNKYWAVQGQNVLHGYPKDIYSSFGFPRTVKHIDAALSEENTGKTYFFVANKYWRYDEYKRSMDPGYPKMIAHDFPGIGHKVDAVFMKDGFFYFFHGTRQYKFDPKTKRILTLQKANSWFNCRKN

Target: Human Rheumatoid Synovial Collagenase (Homo sapiens, UniProt P03956)
Assay: Collagenase inhibition, procedure of Cawston and Barrett (acetyl 14C collagen hydrolysis)
Settings: read-out: IC50 (μM) Human Rheumatoid Synovial Collagenase; inhibitor concentration effecting 50% inhibition; 37° C., 16 hours, native acetyl 14C collagen, Tris HCl-CaCl2 pH 7.6; tested form: hydrate
Protocol: This was determined following the procedure of Cawston and Barrett, Anal. Biochem., 99, 340-345 (1979) whereby the 1 mM of the inhibitor being tested or dilutions thereof are incubated at 37° C. for 16 hours with native collagen and collagenase (buffered with Tris HCl--CaCl2; pH 7.6). The collagen is acetyl ^14 C collagen. The samples are centrifuged to sediment undigested collagen and an aliquot of the radiactive supernatant removed for assay on a scintillation counter as a measure of hydrolysis. The collagenase activity in the presence of 1 mM inhibitor, or a dilution thereof is compared to activity in a control devoid of inhibitor and the results reported as that inhibitor concentration effecting 50% inhibition of the collagenase.

IC50: 1.3 µM
Compound: CNC(=O)[C@H](Cc1ccc(OC)cc1)NC(=O)[C@H](CC(C)C)N[C@H](CCNC(=O)NCc1ccccc1)C(=O)O
